Molecular target: ERα/SRC-3 coactivator interaction (Homo sapiens, UniProt P03372, C381S/C530S)
Experiment: TR-FRET CBI assay, ERα-LBD / SRC-3-NRD
Type: binding
Settings: 1 μM estradiol, fluorescein-SRC-3-NRD 50 nM

Protein sequences, listed by entry. Tags and fused reporters are not part of them. Residues count along the entry.
UniProt P03372, 311-547 C381S/C530S limits assumed: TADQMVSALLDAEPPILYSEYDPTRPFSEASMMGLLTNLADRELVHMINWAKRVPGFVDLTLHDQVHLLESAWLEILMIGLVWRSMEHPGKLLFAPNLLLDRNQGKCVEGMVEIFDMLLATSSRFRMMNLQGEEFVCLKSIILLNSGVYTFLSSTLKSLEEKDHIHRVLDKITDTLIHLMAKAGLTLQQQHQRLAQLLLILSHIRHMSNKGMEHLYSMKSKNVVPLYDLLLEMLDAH

Row | SMILES | TR-FRET Ki ERα
1 | CC(C)CNc1nc(CCc2cccc3ccccc23)cc(N(C)CC(C)C)n1 [Compound 34c, N^4-methyl-N^2,N^4-diisobutyl-6-[(2-naphthalen-1-yl-ethyl)-pyrimidin-2,4-yl]-diamine] | bind
2 | CC(C)CNc1nc(CCc2ccccc2)cc(N(C)CC(C)C)n1 [Compound 35, N^4-dimethyl-N^2,N^4-diisobutyl-(6-phenethyl-pyrimidin-2,4-yl)-diamine] | bind
